Assay results from patent US9284330B2 (priority 2011, dated 2016).

How the values were obtained:
[1] = test system: primary cortical neuron cells; test: Effect of the compounds on the morphology of neurons (microscopy)
[2] = test system: tau protein phosphorylation; test: Intracellular tau protein phosphorylation of primary neurons (Western blot); type: cell-based; settings: 1 μM

Row | Compound | Effect on the morphology of neurons ([1]; 1 μM) | Effect on the morphology of neurons ([1]; 0.1 and 1 μM, 24 h after administration) | Cell death seen in Western blot samples [2]
1 | CCOC(=O)C1=C(C)Nc2nc3c(c(N)c2C1c1ccc(C)cc1)CCCC3 (centres unmarked) | no morphology of neurons was observed | neuron axon/dendrite was broken up and the cells was crimpled | most cells died
2 | CCOC(=O)C1=C(C)Nc2nc3c(c(N)c2C1c1ccc([N+](=O)[O-])cc1)CCCC3 (centres unmarked) |  |  | most cells died
3 | CCOC(=O)C1=C(C)Nc2nc3c(c(N)c2C1c1ccc(OC)cc1)CCCC3 (centres unmarked) |  |  | most cells died
